Results taken from patent publication US10420758B2, “Indolinyl-sulfonamide inhibitors of tankyrase and methods of use thereof” (The Board of Regents of the University of Texas System, priority 2015, dated 2019).

What was measured:
PARP11 = molecular target: T1, PARP11 (Homo sapiens, UniProt Q9NR21); experiment: PARP profiling, parsylation of immobilized histone; assay type: biochemical
T1 sequence (Q9NR21 1-338): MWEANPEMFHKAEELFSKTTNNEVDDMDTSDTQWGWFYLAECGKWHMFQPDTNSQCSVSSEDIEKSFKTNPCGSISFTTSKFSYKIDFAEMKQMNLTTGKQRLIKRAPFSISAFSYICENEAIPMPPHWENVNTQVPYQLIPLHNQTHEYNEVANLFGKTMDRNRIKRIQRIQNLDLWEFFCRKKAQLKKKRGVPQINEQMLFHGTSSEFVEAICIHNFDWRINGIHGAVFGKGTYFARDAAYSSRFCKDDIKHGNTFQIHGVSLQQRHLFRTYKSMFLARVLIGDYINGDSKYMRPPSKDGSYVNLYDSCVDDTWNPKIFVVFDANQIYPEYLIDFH
Description: (§1) Performed by BPS Bioscience Inc., San Diego by following the BPS PARP or TNKS assay kit protocols. The enzymatic reactions were conducted in duplicate at room temperature for 1 hr in a 96 well plate coated with histone substrate. […] of reaction buffer (Tris.HCl, pH 8.0) contains NAD^+, biotinylated NAD^+, activated DNA, recombinant PARP enzyme and 10 μM of the test compound. Olaparib used at 20 nM concentration. After enzymatic reactions, 50 μL of Streptavidin-horseradish peroxidase was added to each well and the plate was incubated at room temperature for an additional 30 min. 100 μL of developer reagents were added to wells and luminescence was measured using a BioTek Synergy™ 2 microplate reader.

PARP7 = molecular target: T2, PARP7 (Homo sapiens, UniProt Q7Z3E1); experiment: PARP profiling, parsylation of immobilized histone; assay type: biochemical
T2 sequence (Q7Z3E1 1-657): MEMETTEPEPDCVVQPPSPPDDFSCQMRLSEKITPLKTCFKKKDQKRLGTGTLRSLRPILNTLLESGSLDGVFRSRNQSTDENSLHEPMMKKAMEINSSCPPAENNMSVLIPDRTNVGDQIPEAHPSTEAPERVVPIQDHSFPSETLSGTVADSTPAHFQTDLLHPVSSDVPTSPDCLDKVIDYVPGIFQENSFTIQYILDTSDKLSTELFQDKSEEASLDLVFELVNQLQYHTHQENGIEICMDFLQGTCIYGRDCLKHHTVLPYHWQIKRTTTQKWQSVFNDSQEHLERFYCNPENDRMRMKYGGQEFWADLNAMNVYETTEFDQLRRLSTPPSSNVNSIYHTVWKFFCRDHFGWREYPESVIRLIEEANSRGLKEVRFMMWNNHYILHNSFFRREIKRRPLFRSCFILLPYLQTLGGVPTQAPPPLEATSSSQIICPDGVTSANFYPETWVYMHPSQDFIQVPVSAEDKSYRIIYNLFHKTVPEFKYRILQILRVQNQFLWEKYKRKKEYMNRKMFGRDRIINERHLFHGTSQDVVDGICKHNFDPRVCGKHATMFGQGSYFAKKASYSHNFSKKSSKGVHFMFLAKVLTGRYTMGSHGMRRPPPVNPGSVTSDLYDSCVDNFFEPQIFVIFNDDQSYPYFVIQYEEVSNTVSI
Description: as §1

Compound: O=C(c1cc(Cc2n[nH]c(=O)c3ccccc23)ccc1F)N1CCN(C(=O)C2CC2)CC1 [Olaparib]
- inhibition at 0.02 µM (PARP11): 96%
- inhibition at 0.02 µM (PARP7): 87%
